Measurements from publication PMC10377281, “Purification and Immobilization of Superoxide Dismutase Obtained from Saccharomyces cerevisiae TBRC657 on Bacterial Cellulose and Its Protective Effect against Oxidative Damage in Fibroblasts” (2023).

The chains behind the UniProt entries cited, without tags or fusion partners. Residues count along the entry.
UniProt P00447, 27-233 limits assumed: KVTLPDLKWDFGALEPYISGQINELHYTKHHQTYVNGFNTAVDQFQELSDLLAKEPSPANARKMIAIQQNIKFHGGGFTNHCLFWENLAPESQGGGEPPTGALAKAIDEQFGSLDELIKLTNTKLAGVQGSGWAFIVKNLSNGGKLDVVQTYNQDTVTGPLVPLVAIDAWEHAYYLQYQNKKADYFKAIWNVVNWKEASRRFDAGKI

Target: purified SOD (Mn-SOD) (Saccharomyces cerevisiae, UniProt P00447)
Assay: residual SOD activity, WST-1 formazan kit
Settings: 1000 µM; preincubated 1.0 mM, 4 °C, 10 min; assay pH 7.0, 35 °C; value is remaining activity (control 100), not per cent inhibition

Structure (SMILES): [N-]=[N+]=N
- Relative Activity (%): 67.06 ± 2.23%
